## Permeability data for macrocyclic peptides

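Conditions beyond the assay type are not listed; see the original paper. The list need not hold all peptides of the study. Entries at the database's floor value (log10 P of -10) are not listed.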

PAMPA is the parallel artificial membrane permeability assay, which has no cells and reads passive diffusion. Caco-2 values are permeabilities across monolayers of Caco-2 human intestinal cells. Permeability is given as log10 of P in cm/s; higher (less negative) is more permeable. "–" marks a cell with nothing listed here.

PAMPA (log10 cm/s) | Caco-2 (log10 cm/s) | structure (SMILES)
-5.66 | – | CCCC[C@@H]1NC(=O)[C@H](CC(C)C)N(C)C(=O)CN(Cc2ccccc2)C(=O)[C@H](CC(C)C)NC(=O)CN(Cc2ccccc2Cn2cccn2)C(=O)[C@H]2CCCN2C1=O
-5.56 | – | CCCCCN1CC(=O)N(C)[C@@H](CC(C)C)C(=O)N[C@@H](CCCC)C(=O)N2CCC[C@@H]2C(=O)N(CCC)CC(=O)N[C@@H](Cc2ccccc2)C1=O
-4.96 | – | CCCC[C@@H]1NC(=O)[C@H](CC(C)C)N(C)C(=O)CN(CC2CCCCC2)C(=O)[C@H](C)NC(=O)CN(CC(C)C)C(=O)[C@H]2CCCN2C1=O
-5.53 | – | CCCC[C@@H]1NC(=O)[C@H](CC(C)C)N(C)C(=O)CN(CCCc2cnn(C)c2)C(=O)[C@H](Cc2ccc3ccccc3c2)NC(=O)CN(CCC)C(=O)[C@H]2CCCN2C1=O
-5.04 | – | CCCC[C@@H]1NC(=O)[C@H](CC(C)C)N(C)C(=O)CN(CCOC)C(=O)[C@H](CC(C)C)NC(=O)CN(Cc2ccc3c(c2)OCO3)C(=O)[C@H]2CCCN2C1=O
-7.44 | – | CCCC[C@@H]1NC(=O)[C@H](CC(C)C)N(C)C(=O)CN(CCCc2ccccc2)C(=O)[C@H](CC(C)C)NC(=O)CN(Cc2ccc3c(c2)OCO3)C(=O)[C@H]2CCCN2C1=O
-8.88 | – | CCCC[C@@H]1NC(=O)[C@H](CC(C)C)N(C)C(=O)CN(CCOc2ccccc2)C(=O)[C@H](Cc2ccc3ccccc3c2)NC(=O)CN(Cc2ccc3c(c2)OCO3)C(=O)[C@H]2CCCN2C1=O
-8.04 | – | CCCCCN1CC(=O)N(C)[C@@H](CC(C)C)C(=O)N[C@@H](CCCC)C(=O)N2CCC[C@@H]2C(=O)N(Cc2ccc(Cl)cc2)CC(=O)N[C@@H](Cc2ccccc2)C1=O
-5.43 | -5.89 | CCCC[C@@H]1NC(=O)[C@H](CC(C)C)N(C)C(=O)CN(CCCc2cnn(C)c2)C(=O)[C@H](Cc2ccccc2)NC(=O)CN(CCC)C(=O)[C@H]2CCCN2C1=O
-5.85 | – | CCCC[C@@H]1NC(=O)[C@H](CC(C)C)N(C)C(=O)CN(CCCN2CCCC2=O)C(=O)[C@H](Cc2ccc3ccccc3c2)NC(=O)CN(CC)C(=O)[C@H]2CCCN2C1=O
-5.75 | – | CCCC[C@@H]1NC(=O)[C@H](CC(C)C)N(C)C(=O)CN(CC2CCOCC2)C(=O)[C@H](CC(C)C)NC(=O)CN(CC)C(=O)[C@H]2CCCN2C1=O
-5.51 | – | CCCC[C@@H]1NC(=O)[C@H](CC(C)C)N(C)C(=O)CN(CCc2cccnc2)C(=O)[C@H](Cc2ccc3ccccc3c2)NC(=O)CN(CC)C(=O)[C@H]2CCCN2C1=O
-7.48 | – | CCCC[C@@H]1NC(=O)[C@H](CC(C)C)N(C)C(=O)CN(CCc2cccnc2)C(=O)[C@H](C)NC(=O)CN(CCN2CCOCC2)C(=O)[C@H]2CCCN2C1=O
-6.08 | – | CCCC[C@@H]1NC(=O)[C@H](CC(C)C)N(C)C(=O)CN(CCOC)C(=O)[C@H](C)NC(=O)CN(CC(C)C)C(=O)[C@H]2CCCN2C1=O
-6.23 | – | CCCC[C@@H]1NC(=O)[C@H](CC(C)C)N(C)C(=O)CN(CCCc2cnn(C)c2)C(=O)[C@H](C)NC(=O)CN(Cc2ccc3c(c2)OCO3)C(=O)[C@H]2CCCN2C1=O
-6.30 | – | CCCC[C@@H]1NC(=O)[C@H](CC(C)C)N(C)C(=O)CN(CCCN2CCCC2=O)C(=O)[C@H](CC(C)C)NC(=O)CN(Cc2ccccc2Cn2cccn2)C(=O)[C@H]2CCCN2C1=O
-5.12 | – | CCCC[C@@H]1NC(=O)[C@H](CC(C)C)N(C)C(=O)CN(Cc2ccccc2)C(=O)[C@H](C)NC(=O)CN(CCC)C(=O)[C@H]2CCCN2C1=O
-5.92 | – | CCCC[C@@H]1NC(=O)[C@H](CC(C)C)N(C)C(=O)CN(Cc2ccccc2)C(=O)[C@H](Cc2ccc3ccccc3c2)NC(=O)CN(CCN2CCOCC2)C(=O)[C@H]2CCCN2C1=O
-5.08 | – | CCCCCN1CC(=O)N(C)[C@@H](CC(C)C)C(=O)N[C@@H](CCCC)C(=O)N2CCC[C@@H]2C(=O)N(Cc2ccccc2Cn2cccn2)CC(=O)N[C@@H](C)C1=O
-8.51 | – | CCCCCN1CC(=O)N(C)[C@@H](CC(C)C)C(=O)N[C@@H](CCCC)C(=O)N2CCC[C@@H]2C(=O)N(CCCCc2ccccc2)CC(=O)N[C@@H](Cc2ccccc2)C1=O
-5.62 | – | CCCC[C@@H]1NC(=O)[C@H](CC(C)C)N(C)C(=O)CN(CCCc2cnn(C)c2)C(=O)[C@H](C)NC(=O)CN(CCCCc2ccccc2)C(=O)[C@H]2CCCN2C1=O
-6.43 | – | CCCC[C@@H]1NC(=O)[C@H](CC(C)C)N(C)C(=O)CN(CCCc2cnn(C)c2)C(=O)[C@H](C)NC(=O)CN(CC(C)C)C(=O)[C@H]2CCCN2C1=O
-7.06 | – | CCCC[C@@H]1NC(=O)[C@H](CC(C)C)N(C)C(=O)CN(CCOc2ccccc2)C(=O)[C@H](CC(C)C)NC(=O)CN(Cc2ccc3c(c2)OCO3)C(=O)[C@H]2CCCN2C1=O
-5.99 | – | CCCC[C@@H]1NC(=O)[C@H](CC(C)C)N(C)C(=O)CN(CCCN2CCCC2=O)C(=O)[C@H](CC(C)C)NC(=O)CN(Cc2ccc3c(c2)OCO3)C(=O)[C@H]2CCCN2C1=O

Extract of 4 entries:

structure (SMILES)	PAMPA (log10 cm/s)	Caco-2 (log10 cm/s)
CCCC[C@@H]1NC(=O)[C@H](CC(C)C)N(C)C(=O)CN(CCCN2CCCC2=O)C(=O)[C@H](Cc2ccc3ccccc3c2)NC(=O)CN(CC)C(=O)[C@H]2CCCN2C1=O	-5.85	–
CCCCCN1CC(=O)N(C)[C@@H](CC(C)C)C(=O)N[C@@H](CCCC)C(=O)N2CCC[C@@H]2C(=O)N(Cc2ccc(Cl)cc2)CC(=O)N[C@@H](Cc2ccccc2)C1=O	-8.04	–
CCCCCN1CC(=O)N(C)[C@@H](CC(C)C)C(=O)N[C@@H](CCCC)C(=O)N2CCC[C@@H]2C(=O)N(CCC)CC(=O)N[C@@H](Cc2ccccc2)C1=O	-5.56	–
CCCC[C@@H]1NC(=O)[C@H](CC(C)C)N(C)C(=O)CN(CCCc2cnn(C)c2)C(=O)[C@H](C)NC(=O)CN(Cc2ccc3c(c2)OCO3)C(=O)[C@H]2CCCN2C1=O	-6.23	–

Values of Furukawa et al. 2016, doi:10.1021/acs.jmedchem.6b01246, as listed in CycPeptMPDB.